Experimental data as given in patent US4906753A, “Preparation of 2,6-disubstituted-5-cyano-4-pyrimidinyloxyacetic acid aldose reductase inhibitors” (American Home Products Corporation, priority 1988, dated 1990).

Biological target: T1, aldose reductase (Bos taurus, UniProt P16116)
T1 construct: preparation of the enzyme from bovine lens; from tissue; host or cells: bovine lens
Assay: in vitro aldose reductase inhibition (modified Hayman and Kinoshita procedure)
Type: biochemical, bovine (lens)
Conditions: for inhibition at 10 µM: 10^-5 M
Excerpt: In the present case the procedure of Hayman and Kinoshita was modified in that the final chromatography step was omitted in the preparation of the enzyme from bovine lens.

Row | Structure (SMILES) | inhibition at 10 µM (Table 1) [%] | inhibition at 0.1 µM (Table 1, 10^-7 M) [%] | inhibition at 10 µM (Table 2) [%] | inhibition at 1 µM (read-out: % Inhibition IN VITRO 10^-6 M) [%]
1 | CCCCCCSc1nc(C(C)(C)C)nc(OCC(=O)O)c1C#N [Example 11 (Table 1)] | 94 | 91 |  | 
2 | N#Cc1c(OCC(=O)O)nc(-c2ccccc2)nc1-c1ccccc1 [Example 4 (Table 2)] |  |  | 96 | 94
